Experimental findings from PubChem BioAssay AID2650 (Broad Institute, 2010) are described below.

The chains behind the UniProt entries cited, without tags or fusion partners. Where a name states a change or a piece, a line headed by the entry shows the natural chain unless it says otherwise.
UniProt P49840: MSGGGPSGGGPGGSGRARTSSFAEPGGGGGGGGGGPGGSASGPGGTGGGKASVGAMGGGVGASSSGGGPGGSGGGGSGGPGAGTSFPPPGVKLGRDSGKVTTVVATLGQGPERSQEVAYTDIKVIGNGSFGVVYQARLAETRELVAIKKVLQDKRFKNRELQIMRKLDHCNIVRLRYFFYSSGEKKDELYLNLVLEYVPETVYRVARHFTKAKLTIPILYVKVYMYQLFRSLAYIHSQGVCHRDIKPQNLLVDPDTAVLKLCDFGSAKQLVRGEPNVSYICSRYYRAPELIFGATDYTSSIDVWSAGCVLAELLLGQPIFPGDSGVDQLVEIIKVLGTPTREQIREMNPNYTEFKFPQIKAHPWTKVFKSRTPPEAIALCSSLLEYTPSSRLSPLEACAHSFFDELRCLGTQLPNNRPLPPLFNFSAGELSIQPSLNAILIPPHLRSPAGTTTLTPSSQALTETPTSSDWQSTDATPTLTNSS

The list shows a part of the results, in another mix than the full data. Activity calls are given as the source filed them.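 How the source made its calls: active means more than half of replicates show inhibition above 20%; inconclusive means some but at most half of replicates above 20% inhibition; inactive means no replicate shows inhibition above 20%.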

This experiment concerns the target Glycogen synthase kinase-3 alpha (Homo sapiens) (UniProt P49840). Kind of experiment: blockers of GSK3A enzyme activity – biochemical, luminescence, cell-free homogeneous, HTS, primary screen (AID 2650).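 Further: GST-tagged GSK-3 alpha with peptide substrate and 25 µM ATP; 0% = DMSO neutral wells and 100% = GW8510 positive control wells.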 The settings on record: GSK-3 alpha kinase, ADP-Glo luminescence, 60 min; at 10 µM; hits give high values. (In general: In ADP-Glo the light output rises with the ADP produced.)
Consider `CC(C)c1ccc(OP(=O)(Nc2ccccn2)Oc2ccccc2F)cc1` (stereo not given), for which the inhibition was inactive: 9.54%.

As to `ClCCSc1nnc(-c2cccnc2)o1`, the inhibition is inactive: -0.64%.

Take `COc1cc(I)ccc1[As](=O)(O)O`: the inhibition was inactive: -0.0224%.

Regarding `COc1ccc2nc(NP(=O)(c3ccccc3)c3ccccc3)sc2c1`, the inhibition was inactive: -2%.

In the case of `Cc1cc(=O)[nH]c(N[N+](=O)[O-])n1`, the inhibition is inactive: 0.854%.

On to `O=C(OC1CN2CCC1CC2)C12CC3CC(CC(C3)C1)C2` (stereo not given), for which the inhibition was inactive: 2.29%.

`Cc1c2c(nc3ccccc13)SC(C(Cl)Cl)C2` (stereo not given): the inhibition is inactive: -3.21%.

Turning to `COc1ccc(N/C(=N/P(=O)(N2CCOCC2)N2CCOCC2)N2CCOCC2)cc1`, the inhibition is inactive: -4.82%.

In the case of `O=C(Nc1ccncc1[N+](=O)[O-])c1ccc([N+](=O)[O-])cc1[N+](=O)[O-]`, the inhibition is inactive: 17.5%.

Regarding `O=C(COc1ccccc1)OC1CN2CCC1CC2` (stereo not given), the inhibition is inactive: -2.92%.

On to `COP1(=S)c2c(C)nn(CCC#N)c2N=C(c2ccc(F)cc2)N1C` (stereo not given), for which the inhibition is inactive: -2.04%.

In the case of `CCC(C)N(CC(C)C)C(=S)SC(NC(C)=O)C(Cl)(Cl)Cl` (stereo not given), the inhibition was inactive: -1.48%.

For `CCOC(=O)c1ccc(NC(=O)C(C)(CCl)SC)cc1` (stereo not given), the inhibition was inactive: -0.13%.

Regarding `O=C(OC1CN2CCC1CC2)c1cccc([N+](=O)[O-])c1` (stereo not given), the inhibition was inactive: -2.02%.

Regarding `Cc1cc(SC(NC(=O)c2ccccc2)C(Cl)(Cl)Cl)nc(C(C)C)n1` (stereo not given), the inhibition was inactive: -0.767%.

On to `CCOC(=O)Nc1ccc([As](=O)(O)O)c(O)c1`, for which the inhibition was inactive: 0.789%.

Consider `O=[N+]([O-])c1ccc(Nc2ccc(Oc3ccc([N+](=O)[O-])cc3[N+](=O)[O-])cc2)c([N+](=O)[O-])c1`, for which the inhibition was inactive: -1.65%.

With `Cc1cc(SC(NC=O)C(Cl)(Cl)Cl)ncn1` (stereo not given), the inhibition is inactive: -0.102%.

On to `O=P(Nc1ccccn1)(c1cccc2ccccc12)c1cccc2ccccc12`, for which the inhibition is inactive: 1.16%.

For the compound `CCOC(=O)Nc1cccc([As](=O)(O)O)c1`, the inhibition is inactive: -0.478%.

The term inhibition denotes the change of the read-out against control, counted positive when it falls.
